Assay results: PMC5799093, “Proceedings of Réanimation 2018, the French Intensive Care Society International Congress” (Annals of Intensive Care, 2018)

Tested on: poisoned patients with cardiovascular failure
Settings: 246 poisoned patients

SMILES | maximal infusion rate associated with survival
CC(C)NCC(O)c1ccc(O)c(O)c1 (centres unmarked) [isoprenaline] | 25 mg·h
NC[C@H](O)c1ccc(O)c(O)c1 [norepinephrine] | 140 mg·h
